According to patent US9532519B2, “Plant growth regulator and use thereof” (Japan Science and Technology Agency, priority 2006, dated 2017):

Test system: Arabidopsis
Test: Effect of concentration of oxidized glutathione on growth of Arabidopsis
Format: in vivo
Details: 5 mM GSSG
Description: The influence of concentration of oxidized glutathione on growth of Arabidopsis was examined. Specifically, soil filled in a pod of approximately 65 in width, 65 in depth, and 50 in height was immersed in 0 mM-, 0.01 mM-, 0.2 mM-, 1 mM-, 2 mM-, and 5 mM-GSSG solutions. Seeds of Arabidopsis were sown in such a manner that approximately three seeds existed in each pod, and the seeds were observed chronologically 3 weeks after the sowing.

Substance: oxidized glutathione [GSSG]
- growth of Arabidopsis at high concentration: the growth of Arabidopsis was greatly prevented and much of Arabidopsis withered
